{"sequences": {"note": "The chains behind the UniProt entries cited, without tags or fusion partners. Where a name states a change or a piece, a line headed by the entry shows the natural chain unless it says otherwise.", "UniProt Q96GD4, whole entry": "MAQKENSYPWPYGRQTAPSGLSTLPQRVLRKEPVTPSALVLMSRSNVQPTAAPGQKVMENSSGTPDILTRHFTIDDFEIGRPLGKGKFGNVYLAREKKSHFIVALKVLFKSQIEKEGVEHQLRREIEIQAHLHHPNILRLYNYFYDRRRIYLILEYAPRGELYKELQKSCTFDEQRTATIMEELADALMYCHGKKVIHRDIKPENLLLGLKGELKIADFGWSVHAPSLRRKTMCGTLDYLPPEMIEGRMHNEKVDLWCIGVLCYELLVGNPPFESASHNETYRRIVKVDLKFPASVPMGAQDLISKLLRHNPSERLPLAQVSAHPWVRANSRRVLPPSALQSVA", "UniProt Q9UKE5": "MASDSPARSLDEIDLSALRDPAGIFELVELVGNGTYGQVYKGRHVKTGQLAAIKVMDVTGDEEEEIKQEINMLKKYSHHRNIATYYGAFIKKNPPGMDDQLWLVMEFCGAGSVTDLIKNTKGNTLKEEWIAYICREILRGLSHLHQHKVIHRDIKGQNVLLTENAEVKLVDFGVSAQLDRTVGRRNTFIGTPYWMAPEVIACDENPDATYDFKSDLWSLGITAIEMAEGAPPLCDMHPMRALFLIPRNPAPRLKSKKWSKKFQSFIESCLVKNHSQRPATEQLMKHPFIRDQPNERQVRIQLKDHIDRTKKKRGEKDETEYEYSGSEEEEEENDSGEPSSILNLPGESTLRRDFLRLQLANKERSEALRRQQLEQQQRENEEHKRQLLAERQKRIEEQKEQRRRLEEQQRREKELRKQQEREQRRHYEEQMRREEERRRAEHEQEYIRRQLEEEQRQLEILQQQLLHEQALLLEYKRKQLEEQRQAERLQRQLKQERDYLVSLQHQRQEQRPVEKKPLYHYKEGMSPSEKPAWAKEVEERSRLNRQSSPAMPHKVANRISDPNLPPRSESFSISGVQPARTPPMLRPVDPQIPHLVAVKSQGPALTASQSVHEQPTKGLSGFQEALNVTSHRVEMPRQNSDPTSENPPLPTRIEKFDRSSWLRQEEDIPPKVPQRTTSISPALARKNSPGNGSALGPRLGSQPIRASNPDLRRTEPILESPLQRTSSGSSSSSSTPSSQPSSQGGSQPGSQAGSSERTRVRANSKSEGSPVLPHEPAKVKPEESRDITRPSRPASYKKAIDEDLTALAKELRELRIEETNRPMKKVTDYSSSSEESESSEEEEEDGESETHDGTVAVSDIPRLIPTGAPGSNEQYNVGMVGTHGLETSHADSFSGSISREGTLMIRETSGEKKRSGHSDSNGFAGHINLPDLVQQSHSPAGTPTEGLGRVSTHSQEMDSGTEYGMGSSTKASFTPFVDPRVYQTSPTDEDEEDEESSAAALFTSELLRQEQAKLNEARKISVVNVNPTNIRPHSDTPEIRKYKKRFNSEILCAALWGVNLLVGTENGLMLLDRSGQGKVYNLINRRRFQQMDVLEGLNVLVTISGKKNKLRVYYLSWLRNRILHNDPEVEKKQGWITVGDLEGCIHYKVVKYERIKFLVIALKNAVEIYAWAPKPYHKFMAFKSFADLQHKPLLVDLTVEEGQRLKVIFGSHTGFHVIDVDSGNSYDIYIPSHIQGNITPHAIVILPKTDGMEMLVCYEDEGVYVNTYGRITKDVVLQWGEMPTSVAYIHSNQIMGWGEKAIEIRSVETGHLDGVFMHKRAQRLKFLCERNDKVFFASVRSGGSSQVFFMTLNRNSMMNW", "UniProt Q16512": "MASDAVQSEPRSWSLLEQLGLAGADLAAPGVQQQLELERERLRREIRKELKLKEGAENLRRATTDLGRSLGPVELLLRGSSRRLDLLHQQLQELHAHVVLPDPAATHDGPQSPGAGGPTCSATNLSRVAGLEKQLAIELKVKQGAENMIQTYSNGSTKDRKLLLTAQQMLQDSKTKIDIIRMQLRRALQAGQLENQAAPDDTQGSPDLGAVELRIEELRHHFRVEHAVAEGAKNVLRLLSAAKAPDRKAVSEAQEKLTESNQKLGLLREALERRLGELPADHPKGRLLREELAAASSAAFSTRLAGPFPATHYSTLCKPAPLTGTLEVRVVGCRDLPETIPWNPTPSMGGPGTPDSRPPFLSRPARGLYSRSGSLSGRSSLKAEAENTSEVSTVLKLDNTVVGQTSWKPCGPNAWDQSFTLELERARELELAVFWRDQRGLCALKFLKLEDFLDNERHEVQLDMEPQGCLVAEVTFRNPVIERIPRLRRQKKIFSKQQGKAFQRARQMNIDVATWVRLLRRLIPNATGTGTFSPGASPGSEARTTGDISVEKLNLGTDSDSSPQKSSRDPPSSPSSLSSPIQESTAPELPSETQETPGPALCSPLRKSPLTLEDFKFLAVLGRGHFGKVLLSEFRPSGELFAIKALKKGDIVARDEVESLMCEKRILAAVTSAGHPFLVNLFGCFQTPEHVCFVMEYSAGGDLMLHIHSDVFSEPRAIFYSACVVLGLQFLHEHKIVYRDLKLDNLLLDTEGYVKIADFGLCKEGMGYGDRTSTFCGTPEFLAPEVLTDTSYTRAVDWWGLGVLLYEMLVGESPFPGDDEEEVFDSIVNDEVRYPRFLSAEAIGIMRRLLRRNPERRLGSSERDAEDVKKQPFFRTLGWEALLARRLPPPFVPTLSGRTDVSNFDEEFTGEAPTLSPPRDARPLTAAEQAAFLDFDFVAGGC", "UniProt P15056, whole entry": "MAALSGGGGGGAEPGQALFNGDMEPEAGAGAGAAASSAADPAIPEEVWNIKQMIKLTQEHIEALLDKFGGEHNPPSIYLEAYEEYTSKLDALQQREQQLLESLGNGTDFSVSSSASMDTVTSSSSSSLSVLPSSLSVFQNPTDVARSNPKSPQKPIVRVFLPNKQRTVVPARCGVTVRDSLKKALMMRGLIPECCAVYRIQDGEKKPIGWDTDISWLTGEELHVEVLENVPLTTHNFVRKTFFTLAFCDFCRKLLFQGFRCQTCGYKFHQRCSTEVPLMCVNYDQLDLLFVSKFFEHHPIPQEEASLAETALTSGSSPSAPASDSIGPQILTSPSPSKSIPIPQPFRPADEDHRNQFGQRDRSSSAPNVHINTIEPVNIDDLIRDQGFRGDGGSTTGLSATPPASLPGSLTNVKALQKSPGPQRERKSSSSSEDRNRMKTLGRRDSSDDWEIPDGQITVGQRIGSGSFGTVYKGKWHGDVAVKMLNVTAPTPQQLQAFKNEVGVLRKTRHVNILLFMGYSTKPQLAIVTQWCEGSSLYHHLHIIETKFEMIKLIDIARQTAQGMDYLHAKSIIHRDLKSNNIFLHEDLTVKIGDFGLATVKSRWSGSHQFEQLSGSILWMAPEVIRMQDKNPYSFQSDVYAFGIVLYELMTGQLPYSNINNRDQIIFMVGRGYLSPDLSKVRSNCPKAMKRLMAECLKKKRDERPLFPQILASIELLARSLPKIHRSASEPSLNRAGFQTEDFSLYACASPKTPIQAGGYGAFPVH", "UniProt P41240": "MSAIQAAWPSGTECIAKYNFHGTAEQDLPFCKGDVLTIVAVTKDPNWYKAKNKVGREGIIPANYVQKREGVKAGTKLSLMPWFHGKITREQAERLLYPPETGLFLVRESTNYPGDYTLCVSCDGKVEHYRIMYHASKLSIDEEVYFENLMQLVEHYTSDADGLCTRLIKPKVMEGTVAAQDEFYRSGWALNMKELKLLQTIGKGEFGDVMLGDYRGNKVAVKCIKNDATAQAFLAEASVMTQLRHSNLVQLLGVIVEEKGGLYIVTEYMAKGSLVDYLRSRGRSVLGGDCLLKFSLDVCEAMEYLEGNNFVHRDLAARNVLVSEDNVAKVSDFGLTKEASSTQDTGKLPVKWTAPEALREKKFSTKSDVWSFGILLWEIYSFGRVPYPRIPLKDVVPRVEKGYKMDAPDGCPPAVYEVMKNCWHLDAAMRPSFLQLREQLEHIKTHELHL", "UniProt Q9NYL2": "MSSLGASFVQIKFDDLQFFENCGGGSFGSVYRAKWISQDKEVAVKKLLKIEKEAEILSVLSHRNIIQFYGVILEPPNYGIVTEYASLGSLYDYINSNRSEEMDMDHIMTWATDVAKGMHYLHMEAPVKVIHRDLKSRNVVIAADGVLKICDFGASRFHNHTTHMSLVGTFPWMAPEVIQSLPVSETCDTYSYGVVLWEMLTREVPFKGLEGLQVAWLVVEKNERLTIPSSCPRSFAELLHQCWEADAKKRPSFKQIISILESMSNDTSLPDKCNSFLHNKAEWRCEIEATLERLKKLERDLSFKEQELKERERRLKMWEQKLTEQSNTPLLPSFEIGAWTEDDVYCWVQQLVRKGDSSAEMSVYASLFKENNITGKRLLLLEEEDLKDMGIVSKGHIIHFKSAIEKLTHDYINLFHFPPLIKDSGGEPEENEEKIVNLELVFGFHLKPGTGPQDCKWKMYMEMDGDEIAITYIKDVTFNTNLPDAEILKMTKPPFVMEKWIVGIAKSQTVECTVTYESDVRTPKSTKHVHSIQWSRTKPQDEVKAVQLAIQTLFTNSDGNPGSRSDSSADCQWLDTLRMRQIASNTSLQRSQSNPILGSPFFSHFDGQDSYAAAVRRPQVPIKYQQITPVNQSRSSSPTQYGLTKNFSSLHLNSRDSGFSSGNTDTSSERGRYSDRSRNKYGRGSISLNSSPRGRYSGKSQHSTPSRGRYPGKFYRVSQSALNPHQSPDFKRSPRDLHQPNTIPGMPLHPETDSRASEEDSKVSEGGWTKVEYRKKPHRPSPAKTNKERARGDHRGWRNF"}, "source": "the supplement of paper PMC11403291", "assay_in_all_cases": "apparent dissociation constant pKd app (kinobead competition) (-log10(M)); higher = stronger binding", "key": {"JAK3": {"biological_target": "T1, JAK3 (UniProt P52333)", "T1 sequence (whole entry)": "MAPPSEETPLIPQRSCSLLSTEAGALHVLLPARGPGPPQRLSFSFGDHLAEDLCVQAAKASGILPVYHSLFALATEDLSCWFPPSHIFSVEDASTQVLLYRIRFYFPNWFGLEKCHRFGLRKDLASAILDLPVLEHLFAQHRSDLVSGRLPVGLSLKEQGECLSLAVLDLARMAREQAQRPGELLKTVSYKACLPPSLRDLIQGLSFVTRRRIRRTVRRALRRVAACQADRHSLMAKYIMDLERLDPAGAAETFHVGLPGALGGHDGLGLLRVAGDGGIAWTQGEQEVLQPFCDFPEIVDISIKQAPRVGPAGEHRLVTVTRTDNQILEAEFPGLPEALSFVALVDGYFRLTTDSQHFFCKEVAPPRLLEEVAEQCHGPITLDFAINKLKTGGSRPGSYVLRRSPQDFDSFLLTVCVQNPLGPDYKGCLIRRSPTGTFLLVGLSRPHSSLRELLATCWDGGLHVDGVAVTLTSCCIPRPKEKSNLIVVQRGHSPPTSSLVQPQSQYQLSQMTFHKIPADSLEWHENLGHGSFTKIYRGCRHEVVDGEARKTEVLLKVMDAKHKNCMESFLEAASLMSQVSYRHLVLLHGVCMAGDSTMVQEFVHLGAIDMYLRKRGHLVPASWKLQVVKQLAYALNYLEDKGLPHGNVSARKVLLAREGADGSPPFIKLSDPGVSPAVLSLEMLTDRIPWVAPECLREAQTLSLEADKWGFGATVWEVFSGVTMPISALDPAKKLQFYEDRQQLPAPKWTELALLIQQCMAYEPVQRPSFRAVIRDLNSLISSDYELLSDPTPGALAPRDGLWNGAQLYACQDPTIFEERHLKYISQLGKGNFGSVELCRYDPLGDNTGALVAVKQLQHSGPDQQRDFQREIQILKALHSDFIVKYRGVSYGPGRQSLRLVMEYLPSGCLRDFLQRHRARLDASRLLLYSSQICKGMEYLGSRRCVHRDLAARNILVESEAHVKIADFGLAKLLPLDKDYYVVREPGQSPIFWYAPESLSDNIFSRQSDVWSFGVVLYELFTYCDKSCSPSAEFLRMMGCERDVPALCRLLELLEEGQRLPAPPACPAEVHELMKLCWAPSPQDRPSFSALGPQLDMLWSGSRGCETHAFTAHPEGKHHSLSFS"}, "AURKB": {"biological_target": "AURKB (UniProt Q96GD4)"}, "MAP4K2": {"biological_target": "T2, MAP4K2 (UniProt Q12851)", "T2 sequence (whole entry)": "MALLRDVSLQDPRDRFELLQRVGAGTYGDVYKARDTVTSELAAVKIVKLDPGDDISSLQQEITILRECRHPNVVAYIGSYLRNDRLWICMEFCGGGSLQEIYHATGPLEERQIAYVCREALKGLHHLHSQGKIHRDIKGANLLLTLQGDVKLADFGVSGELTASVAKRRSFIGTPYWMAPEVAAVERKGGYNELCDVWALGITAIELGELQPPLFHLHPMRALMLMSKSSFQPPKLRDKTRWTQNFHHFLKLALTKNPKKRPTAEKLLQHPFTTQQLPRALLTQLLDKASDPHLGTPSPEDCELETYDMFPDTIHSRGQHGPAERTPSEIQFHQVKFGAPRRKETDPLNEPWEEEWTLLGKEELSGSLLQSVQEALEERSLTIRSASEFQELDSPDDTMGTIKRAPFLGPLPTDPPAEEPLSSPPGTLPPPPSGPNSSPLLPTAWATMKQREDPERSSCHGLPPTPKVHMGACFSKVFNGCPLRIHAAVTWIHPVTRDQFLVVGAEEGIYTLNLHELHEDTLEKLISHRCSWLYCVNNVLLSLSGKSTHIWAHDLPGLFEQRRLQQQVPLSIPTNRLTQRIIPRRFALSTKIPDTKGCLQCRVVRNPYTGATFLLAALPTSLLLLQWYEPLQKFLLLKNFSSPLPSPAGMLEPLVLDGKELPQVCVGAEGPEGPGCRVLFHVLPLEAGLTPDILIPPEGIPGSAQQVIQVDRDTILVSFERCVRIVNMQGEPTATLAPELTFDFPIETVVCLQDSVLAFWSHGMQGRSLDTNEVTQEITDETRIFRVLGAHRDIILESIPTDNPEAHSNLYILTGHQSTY"}, "TNIK": {"biological_target": "TNIK (UniProt Q9UKE5)"}, "TEC": {"biological_target": "T3, TEC (UniProt P42680)", "T3 sequence (whole entry)": "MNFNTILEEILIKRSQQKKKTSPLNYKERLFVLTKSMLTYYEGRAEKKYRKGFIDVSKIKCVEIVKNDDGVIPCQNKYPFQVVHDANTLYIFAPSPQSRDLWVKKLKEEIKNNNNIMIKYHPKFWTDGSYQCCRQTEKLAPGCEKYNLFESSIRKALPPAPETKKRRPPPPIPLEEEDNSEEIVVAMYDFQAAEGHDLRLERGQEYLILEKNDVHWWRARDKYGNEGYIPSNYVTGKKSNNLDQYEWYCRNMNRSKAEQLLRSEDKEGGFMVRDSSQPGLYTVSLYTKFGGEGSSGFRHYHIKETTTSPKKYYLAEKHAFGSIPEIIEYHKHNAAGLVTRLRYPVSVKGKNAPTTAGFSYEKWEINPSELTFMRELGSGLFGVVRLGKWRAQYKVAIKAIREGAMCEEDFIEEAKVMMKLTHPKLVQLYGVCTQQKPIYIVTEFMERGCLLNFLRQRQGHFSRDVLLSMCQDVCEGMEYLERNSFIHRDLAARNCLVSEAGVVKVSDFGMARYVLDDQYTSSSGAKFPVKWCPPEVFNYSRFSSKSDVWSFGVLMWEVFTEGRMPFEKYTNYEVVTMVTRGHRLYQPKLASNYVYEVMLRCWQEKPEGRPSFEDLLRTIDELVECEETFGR"}, "PKN1": {"biological_target": "PKN1 (UniProt Q16512)"}, "BRAF": {"biological_target": "BRAF (UniProt P15056)"}, "CSK": {"biological_target": "CSK (UniProt P41240)"}, "ZAK": {"biological_target": "ZAK (UniProt Q9NYL2)"}}}
{"molecule": "NC(=O)c1cccc2cn(-c3ccc([C@@H]4CCCNC4)cc3)nc12", "note": "[Niraparib]", "values": [{"measurement": "apparent dissociation constant pKd app (-log10)", "setting": "JAK3", "result": "< 4.6"}, {"measurement": "apparent dissociation constant pKd app (-log10)", "setting": "AURKB", "result": "< 4.8"}, {"measurement": "apparent dissociation constant pKd app (-log10)", "setting": "MAP4K2", "result": "< 4.6"}, {"measurement": "apparent dissociation constant pKd app (-log10)", "setting": "TNIK", "result": "< 4.6"}, {"measurement": "apparent dissociation constant pKd app (-log10)", "setting": "TEC", "result": "< 4.8"}, {"measurement": "apparent dissociation constant pKd app (-log10)", "setting": "PKN1", "result": "< 4.5"}, {"measurement": "apparent dissociation constant pKd app (-log10)", "setting": "BRAF", "result": "< 4.5"}, {"measurement": "apparent dissociation constant pKd app (-log10)", "setting": "CSK", "result": "< 4.6"}, {"measurement": "apparent dissociation constant pKd app (-log10)", "setting": "ZAK", "result": "< 4.6"}]}
{"molecule": "O=C(c1cc(Cc2n[nH]c(=O)c3ccccc23)ccc1F)N1CCN(C(=O)C2CC2)CC1", "note": "[Olaparib]", "values": [{"measurement": "apparent dissociation constant pKd app (-log10)", "setting": "JAK3", "result": "< 4.6"}, {"measurement": "apparent dissociation constant pKd app (-log10)", "setting": "AURKB", "result": "< 4.8"}, {"measurement": "apparent dissociation constant pKd app (-log10)", "setting": "MAP4K2", "result": "< 4.6"}, {"measurement": "apparent dissociation constant pKd app (-log10)", "setting": "TNIK", "result": "< 4.6"}, {"measurement": "apparent dissociation constant pKd app (-log10)", "setting": "TEC", "result": "< 4.8"}, {"measurement": "apparent dissociation constant pKd app (-log10)", "setting": "PKN1", "result": "< 4.5"}, {"measurement": "apparent dissociation constant pKd app (-log10)", "setting": "BRAF", "result": "< 4.5"}, {"measurement": "apparent dissociation constant pKd app (-log10)", "setting": "CSK", "result": "< 4.6"}, {"measurement": "apparent dissociation constant pKd app (-log10)", "setting": "ZAK", "result": "< 4.6"}]}
{"molecule": "Cn1ncnc1[C@H]1c2n[nH]c(=O)c3cc(F)cc(c23)N[C@@H]1c1ccc(F)cc1", "note": "[Talazoparib]", "values": [{"measurement": "apparent dissociation constant pKd app (-log10)", "setting": "JAK3", "result": "< 4.6"}, {"measurement": "apparent dissociation constant pKd app (-log10)", "setting": "AURKB", "result": "< 4.8"}, {"measurement": "apparent dissociation constant pKd app (-log10)", "setting": "MAP4K2", "result": "< 4.6"}, {"measurement": "apparent dissociation constant pKd app (-log10)", "setting": "TNIK", "result": "< 4.6"}, {"measurement": "apparent dissociation constant pKd app (-log10)", "setting": "TEC", "result": "< 4.8"}, {"measurement": "apparent dissociation constant pKd app (-log10)", "setting": "PKN1", "result": "< 4.5"}, {"measurement": "apparent dissociation constant pKd app (-log10)", "setting": "BRAF", "result": "< 4.5"}, {"measurement": "apparent dissociation constant pKd app (-log10)", "setting": "CSK", "result": "< 4.6"}, {"measurement": "apparent dissociation constant pKd app (-log10)", "setting": "ZAK", "result": "< 4.6"}]}
